Measured affinities in a library of Ab-14 light chain variants

The measurements come from Li et al. 2023 (doi:10.1038/s41467-023-39022-2) through the FLAb antibody collection.

Target: peptide PDVDLGDISGINAS, taken from heptad repeat 2 (HR2) of SARS-CoV-2 spike.

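The parent was found by panning a naive human phage display library on the peptide. This is the validation round: designs drawn from the data on random variants, tested in the same kind of assay. Several design methods are mixed in this list. In AlphaSeq, yeast of one mating type display the scFv and yeast of the other type display the target. Binding brings cells together so that they mate, and sequencing counts the barcode pairs among the diploids. Each replicate has its own calibration line, from reference interactions of the BCL2 family. The assay was run in six technical replicates.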

Each scFv is VH, a (GGGGS)3 linker, VL, as in the parent Ab-14, and differs from it in the CDRs of the light chain only.
VH: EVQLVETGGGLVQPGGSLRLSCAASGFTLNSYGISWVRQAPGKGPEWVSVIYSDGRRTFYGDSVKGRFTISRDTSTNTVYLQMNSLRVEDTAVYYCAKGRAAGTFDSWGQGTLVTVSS
VL: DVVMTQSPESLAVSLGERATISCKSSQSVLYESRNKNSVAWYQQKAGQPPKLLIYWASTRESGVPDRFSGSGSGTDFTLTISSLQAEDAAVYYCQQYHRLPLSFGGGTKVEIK

Variants are written as CDR1, CDR2 and CDR3 of the light chain (limits as in the source). Parent: KSSQSVLYESRNKNSVA, WASTRES, QQYHRLPLS. Affinities are written as log10 Kd with Kd in nM; a lower number is a better binder. The mean shown is taken over the replicates in which the pair was detected. A pair that was not seen in any replicate is written "nd"; this usually means weak binding, but a binder can also be missed. Nonspecific signal, from three strains lacking the peptide, appeared in 4% of pairings of all light chain designs, centred on 2.64 (5% of these signals below 1.59); values are not corrected for it. The range of this assay differs from that of the first round, and the authors advise against merging the two. The parent sequence was in this pool as ten entries: three were never detected, three once, and four in most replicates, with averages from 0.34 to 2.37. The authors averaged sequences with at least three values out of six and counted those with two or fewer as poor binders.

CDR-L1 | CDR-L2 | CDR-L3 | log10 Kd (nM), mean | seen in
KLSQYVGGESRNKSSLA | DNSTRES | QQYERLPLS | 2.02 | 5/6
KISASVNYEMVNGQSVA | QMSTREA | QQYDRLPLS | 0.93 | 6/6
TISQSVNMMSHGRNSVA | QAEMRES | QQYDRLPLS | 0.72 | 6/6
IVSQLMLWGYHAKNSIA | EAHTRLN | QQYDRLPLF | 1.74 | 1/6
KLQQSVLYESRNKNSVA | NASQRED | QQYHRLPLS | -0.38 | 6/6
MMSQVTGSGTRHRNNVA | QTSMREI | QQYDRLPLV | 0.76 | 6/6
KLEQGDLYESRNKNSVA | GASTRES | QQYHRLPLS | -0.63 | 6/6
KLSQSFDYESRNKNSVA | NASTRES | QQYHRLPLS | -0.24 | 6/6
QMLMATMQGTYNRNSVA | HAETRED | QSYHRLPLS | 1.75 | 3/6
KSSQSVLYESRNKNSVA | AASTRTS | QQYHRLPLS | 2.50 | 6/6
KVSQSNGGESRMKNSVA | HASQRES | QQYHRLPLS | 2.05 | 4/6
HMSESDHGHNAGVGNMA | NATESTE | QQYMHLPLS | 0.55 | 6/6
KITGMWTFENRNKNSIA | EESTRED | QSYHRLPLS | 0.81 | 6/6
HISPGFMVESRLKNSVA | QTSTRES | QQYDRLPLS | 1.05 | 6/6
KLLISVLDESRNDNSVA | NASHRLS | QQYHRLPLS | 0.61 | 6/6
KSSQEVLDESRNKNSVA | QASTRES | QQYHRLPLS | 0.72 | 6/6
QLEFRDVQGGANWHAIA | EASQLGQ | QQYFHLPLG | 1.46 | 6/6
MISQSFLIGSKAKNSVA | QTSTRES | QQYDRLPLS | 0.40 | 6/6
KFGQGVLYESRNKNSVA | GASTRES | QQYHRLPLH | 1.25 | 6/6
MVTQMAMTGMTNKRSVA | NAETREY | QQYFRLPLI | 0.09 | 6/6
KSSQSHLEESRNKNSVA | WASTRES | QQYHRLPLS | 2.07 | 4/6
KVMQSVGQGQRNKNSVA | EASTRER | QQYHRLPLS | 0.25 | 6/6
MVTQMAMTGMMNKRSVA | NAETREY | QQYHRLPLF | 0.91 | 6/6
KVSQSMLYESRNKNNVA | DASQRES | QQYHRLPLS | -0.33 | 6/6
KYSQSMLYESRNKNSVA | WASTRIS | QQYHRLPLS | 1.64 | 6/6
KFSQSVLYEGRNKNSVA | NASTRES | QQYHRLPLS | 0.19 | 6/6
HISQMVMYGSCNYNNVA | QVSTREE | QQYHRLPLS | 0.47 | 6/6
KLSQVTNSEHKNKNSIA | EMVTREK | QQYDRLPLS | 0.59 | 6/6
KVSQSVLYESRNKNSVA | WASERIS | QKYHRLPLS | nd | 0/6
KSSQSVNYESRNKNSVA | WASTRES | QQYHRLPLM | 1.29 | 1/6

Second part, the sequence after the result:

log10 Kd (nM), mean | seen in | CDR-L1 | CDR-L2 | CDR-L3
nd | 0/6 | MLRCDITDGQKNWNNIA | ETSELGA | QQYAHLPLG
0.84 | 6/6 | ALTNEPESVNHHKNNVA | STSKRCM | QQYARLPLS
-0.58 | 6/6 | KLSQSMLYESRNKNSVA | NASTRVS | QQYHRLPLS
-0.23 | 6/6 | KSSQDVLYESRNKNSVA | WASTRES | QQYHRCPLS
1.87 | 4/6 | IISANNVMQGSQWDAVA | QGEIANN | QQYARLPLS
1.56 | 3/6 | KRSQSVLYESTNKNSVA | WASTRES | QQYHRLPLS
0.23 | 6/6 | TLSHSTDLESVHRNNIA | DLMTRES | QQYDRLPLS
1.36 | 6/6 | NLGQKMSHEYEQRNSIA | DMTVREY | QQYSRIPLI
1.07 | 6/6 | MLEEYQSYGAANLNAVA | DANCTMF | QQYYRLPLS
nd | 0/6 | KISWSVLYESRNKNSVA | WASTRES | QQSHRNPLS
0.23 | 6/6 | KSSGSYLYESRNKNSVA | EASTRES | QQYHRLPLM
0.62 | 6/6 | KLSQSVLIESRNKNSVA | WASTRES | QQYHRLPLS
nd | 0/6 | KSSQSVLYESRNKNSVA | WASTRES | PQYHRLPLS
-0.27 | 6/6 | KLSQSVLYESRDKNSVA | HASTRED | QQYHRLPLS
0.71 | 6/6 | KISMTTEMELKNRNSVA | ELVTREN | QQYNRLPLS
0.93 | 6/6 | NLAMAYLQGILIKNNIA | SSNLREN | QQYEHLPLI
0.95 | 6/6 | KSLQAWLYESRNKNSVA | HASTREQ | QQYHRLPLS
1.87 | 6/6 | KSSQSVLWESNNKNSVA | WASTRES | QQYHRLPLS
1.15 | 4/6 | KSSQSGLYESRNMNSVA | DASTRES | QQYHRLPLS
0.03 | 6/6 | KLDQMCQYESRNKNSVA | NASTRES | QQYHRLPLS
1.35 | 6/6 | KSSQSVLYESENKNSVA | ASSTRES | QQYHRLPLS
0.09 | 6/6 | KFSQSVLYESRTKNGVA | NASQRES | QQYHRLPLS
1.96 | 1/6 | KSQQSTLYESRNKNSVA | WASTRES | QQYHRLPFS
0.21 | 6/6 | KESQSWWYESRNKNSVA | GASTRES | QQYHRLPLS
0.51 | 6/6 | TISGVMQQMTHSKNNVA | EVSTRLD | QQYFRLPLE
2.24 | 1/6 | KSSQSVLYESRNKNSVA | WASTRES | QQYHRLPLD
1.44 | 6/6 | KVSDLMAFLSRNRNSVA | DNSTRGS | QQYHRLPLS
0.17 | 6/6 | KMSQEAMMLSRNKNSVA | QASTREQ | QQYHRLPLS
2.51 | 2/6 | IVSQLMMWGMHAKNSIA | EAVTRIN | QQYDRLPLF
0.54 | 6/6 | KSSQSSLYESRNKNSVA | WASTRES | QQYHQLPLS
-0.27 | 6/6 | KVSQSVLYESRNWNSVA | DASTRES | QQYHRLPLS

A selection of 8 entries from above:

| CDR-L1 | CDR-L2 | CDR-L3 | log10 Kd (nM), mean | seen in |
|---|---|---|---|---|
| KSSQDVLYESRNKNSVA | WASTRES | QQYHRCPLS | -0.23 | 6/6 |
| KISMTTEMELKNRNSVA | ELVTREN | QQYNRLPLS | 0.71 | 6/6 |
| MLEEYQSYGAANLNAVA | DANCTMF | QQYYRLPLS | 1.07 | 6/6 |
| KLEQGDLYESRNKNSVA | GASTRES | QQYHRLPLS | -0.63 | 6/6 |
| KLSQSVLIESRNKNSVA | WASTRES | QQYHRLPLS | 0.62 | 6/6 |
| KMSQEAMMLSRNKNSVA | QASTREQ | QQYHRLPLS | 0.17 | 6/6 |
| KVSQSMLYESRNKNNVA | DASQRES | QQYHRLPLS | -0.33 | 6/6 |
| KSSQSVLYESENKNSVA | ASSTRES | QQYHRLPLS | 1.35 | 6/6 |